Measurements reported in PMC2518627, “Refinement of a radioreceptor binding assay for nicotinic acid adenine dinucleotide phosphate” (Analytical Biochemistry, 2007).

Test: Stability of nucleotides under different pH conditions (HPLC)
Format: physicochemical
Settings: 1 mM, 6 h; for Stability at pH 7.2: 50 mM Hepes (pH 7.2); for Stability at pH 0.88: 0.75 M HClO4 (pH 0.88); for Stability at pH 8.6: 0.75 M HClO4/1 M KHCO3 (pH 8.6); for Stability at pH 11: 1 M K2CO3 (pH 11); for Stability at pH 9.1: 1 M KHCO3 (pH 9.1)
Protocol: All high-performance liquid chromatography (HPLC) was carried out on an anion exchange resin (AGMP1, Bio-Rad, USA), packed in 150 × 2.5-mm Omnifit columns, using a concave upward gradient of trifluoroacetic acid (TFA), delivered by a Waters 600e pump, as described previously. Detection was performed by a UV detector (Waters 2487, UK) at 254 nm.
NADP, NAADP, or NADPH (reduced-form NADP) (1 mM) was incubated in the following buffers for 6 h: 50 mM Hepes (pH 7.2), 0.75 M HClO4 (pH 0.88), 1 M KHCO3 (pH 9.1), 0.75 M HClO4/1 M KHCO3 (pH 8.6), or 1 M K2CO3 (pH 11). Samples were then neutralized with their base equivalence of either Tris base (for acidic solutions) or Hepes acid (for basic solutions) as applicable. Samples were analyzed by HPLC as described above, with elution times being determined from standard runs with known compounds.

Substance: nicotinamide adenine dinucleotide phosphate [NADP]
- Stability at pH 7.2: remained stable
- Stability at pH 0.88: remained stable
- Stability at pH 8.6: remained stable
- Stability at pH 11: converted to a variety of products, including NAADP
- Stability at pH 9.1: remained stable

Substance: nicotinic acid adenine dinucleotide phosphate [NAADP]
- Stability at pH 7.2: remained stable
- Stability at pH 0.88: remained stable
- Stability at pH 8.6: remained stable
- Stability at pH 11: some conversion of NAADP to NADP
- Stability at pH 9.1: remained stable
